Experiment [1] relates to microtubules. Description: Microtubule organization using concentric perinuclear ring masks. It is filed as cell-based. Particulars: five sequential dilations of perinuclear ring mask; duplicate wells. The method, then:
Domains were defined by five sequential dilations of a perinuclear ring mask, and measurements were made of the mean microtubule-associated intensity, the standard deviation of the microtubule-associated intensity, the mean cytoplasm to nucleus fluorescence intensity ratio, and cell-normalized microtubule fluorescence intensity. For each drug treatment condition, experiments were performed in duplicate.
Finally, the slope of the best linear fit of the microtubule associated fluorescence was calculated as a function of the angular dilation. This way, it was possible to compare the rate of change of these parameters as a function of domain position.

The test system of experiment [2] is microtubules. In words: Preliminary time-course and 12 hour dose-response evaluations of microtubule polymer mass. It is filed as cell-based. Conditions: 12 hour dose-response. Here is the method:
Cell culture/drug treatments: Cells were plated on 96-well plates in the appropriate cell culture media plus 10% FBS. […] Different plating densities and treatment times were explored to maximize the observable effects of the drugs.
Immunofluorescence: This included three steps: (1) Extraction of soluble (monomeric) tubulin by permeabilizing the cells with 0.5% Triton X-100 in a microtubule stabilizing buffer, in order to remove unpolymerized tubulin. (2) Fixation of intracellular protein with 4% formaldehyde. (3) Microtubule, DNA, and (optional) total cellular protein fluorescence labeling. […]
Image Analysis: Quantitative determination of microtubule polymer levels was performed using the methods described above. […] The nuclear image was dilated to produce a perinuclear ring mask, where cytoplasmic tubulin polymer was measured. […]
Quantitation of microtubule-associated intensity was carried out by summing the pixel intensities in the microtubule (MT) channel in the area covered by the perinuclear ring mask. […] From these measurements a MT polymerization index was calculated by normalizing the amount of MT fluorescence in a treated, “experimental” cell population, versus the amount of MT-associated fluorescence in an untreated, control cell population. […] Other methods of quantitation that were used are described below. […]

`COc1cc2c(c(OC)c1OC)-c1ccc(OC)c(=O)cc1[C@@H](NC(C)=O)CC2` [colchicine]: the “effect on microtubule organization” value in the experiment with microtubules [1] was “microtubule disruption”. The “quality of dose-response data” value in the experiment on microtubules [2] is “good dose-response curves”.

Values taken from patent US8050868B2, “Methods for determining the organization of a cellular component of interest” (Cellomics, Inc., priority 2001, dated 2011).
